Binding of CDR-mutated scFvs to a peptide of the spike HR2 region

The measurements come from Engelhart et al. 2022 (doi:10.1038/s41597-022-01779-4) through the FLAb antibody collection.

Antigen: PDVDLGDISGINAS, a 14-residue peptide of the SARS-CoV-2 spike HR2 region.

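The starting antibody came from a phage panning campaign against this peptide. Library AAYL50 holds single substitutions and randomly drawn double and triple substitutions in the CDRs. The assay is AlphaSeq: two haploid yeast populations carry antibody and antigen on their surface. Binding brings cells together so that they mate, and sequencing counts the barcode pairs among the diploids. The ratio of observed to expected reads was calibrated, replicate by replicate, on BCL2-family standards whose Kd was known from biolayer interferometry. The assay was run in three technical replicates.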

Ab-14 is the parent antibody, in scFv form: VH, then three GGGGS repeats, then VL. The heavy chain is unchanged in all variants.
VH: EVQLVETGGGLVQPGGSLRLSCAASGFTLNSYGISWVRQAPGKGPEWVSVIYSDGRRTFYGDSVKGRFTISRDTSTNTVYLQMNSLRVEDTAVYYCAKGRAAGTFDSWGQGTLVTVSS
VL: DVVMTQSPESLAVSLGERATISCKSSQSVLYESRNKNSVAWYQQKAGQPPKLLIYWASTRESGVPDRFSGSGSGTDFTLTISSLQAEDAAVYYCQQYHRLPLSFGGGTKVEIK

Each variant is given by its three light chain CDRs, as the data file delimits them; those of the parent are KSSQSVLYESRNKNSVA, WASTRES, QQYHRLPLS.
Every variant below is changed at S62 of the VL (sequential numbering).
Each Kd is an estimate from the mating assay, the geometric mean of the replicates in which the pair was seen; lower is stronger.
"nd" means that the variant was in the library but no mating with the target was seen in any replicate; the authors take this as a sign of poor binding, and no number exists.
Nonspecific signal, from three strains lacking the peptide, appeared in 18% of pairings of library AAYL50, centred on 15 µM (5% of these signals below 970 nM); values are not corrected for it.

Variant KSSQSVLYEHRNKNSVA | WASTREK | QQYPRLPLS showed 2.6 µM (3 of 3 replicates).
Variant KSSQSVKYESRNKNSVD | WASTREP | QQYHRLPLS showed 31 µM (1 of 3 replicates).
Variant KSQQSVLYESRNKNSVA | WASTREM | QQYHRLPLS showed 8.9 nM (3 of 3 replicates).
Variant KSSQSVLYESRNKNSVA | WYSTREC | QQYHRLCLS showed 86 µM (2 of 3 replicates).
Variant KQSQSVLYESMNKNSVA | WASTREV | QQYHRLPLS showed 10 nM (3 of 3 replicates).
Variant KSSQSVLYESRNKNYVA | WASTVEM | QQYHRLPLS showed 170 µM (1 of 3 replicates).
Variant KSSQSVLYESRNKRSVA | WWSTREE | QQYHRLPLS showed nd (0 of 3 replicates).
Variant KSSMSVLYESRNKNSVA | WASTRED | QQYHRGPLS showed nd (0 of 3 replicates).
Variant KSSQSVLIESRNKNSVA | WCSTRED | QQYHRLPLS showed 82 nM (3 of 3 replicates).
Variant KSSQSVLYNSRNKNSVA | WASTREK | QQYHRLPLH showed 26 nM (3 of 3 replicates).
Variant KSSQSVLYCSRNKNSVA | WASTREF | HQYHRLPLS showed nd (0 of 3 replicates).
Variant KSSQSVLYESRNKNSVA | WASTREY | QQYHRLWLK showed nd (0 of 3 replicates).
Variant KSSQSVLYESRNKNSVA | WASTREH | QQYHRLPLS showed 8.0 nM (3 of 3 replicates).
Variant KSSQSVLYPSRNKNSVA | WASTRED | QQYHRLPSS showed 340 µM (1 of 3 replicates).
Variant KSSQSVLYESRNKFSVA | WASTREM | QQYHRLPWS showed nd (0 of 3 replicates).
Variant KSSQSVLYESRNKNSVA | WASTRPG | YQYHRLPLS showed 1.7 µM (1 of 3 replicates).
Variant KSSQSVLYESRNKNSVA | WASTREF | QQYHEKPLS showed nd (0 of 3 replicates).
Variant KSSQSVLYESRNKNSVA | WASTRET | QQYHELVLS showed nd (0 of 3 replicates).
Variant KSSQSVLYESRNKNSFA | WASTREG | QQGHRLPLS showed nd (0 of 3 replicates).
Variant KSSQSVLYESRNKNSVA | WASSREF | QQYFRLPLS showed 58 nM (3 of 3 replicates).
Variant KSCQSVLYESRNENSVA | WASTREL | QQYHRLPLS showed 110 nM (3 of 3 replicates).
Variant KSSQSVLWESRNKNSVA | WASTREY | WQYHRLPLS showed nd (0 of 3 replicates).
Variant KSSQSRLYESRNKNSVA | WASTREM | QQYHRLPLS showed 29 nM (3 of 3 replicates).
Variant KSSQFVLYESRNKNSVA | WASTREF | QQYHRLPLS showed 1.9 µM (1 of 3 replicates).
Variant KSDQSVLYESRNKNSVA | WASTPEY | QQYHRLPLS showed 540 nM (3 of 3 replicates).
Variant KSSQSVGYEWRNKNSVA | WASTREQ | QQYHRLPLS showed 8.0 nM (3 of 3 replicates).
Variant KSSQSVLYESRNKNSVA | WASTRER | QQYHRLPLH showed nd (0 of 3 replicates).
Variant KSSQSKLYESRNKNSVA | WASTREW | QQYHNLPLS showed 99 nM (3 of 3 replicates).
Variant KSSQSVLYESRNKISVA | WASTREA | QQVHRLPLS showed 1.6 µM (1 of 3 replicates).
Variant KSSQSVLYKSRNFNSVA | WASTREN | QQYHRLPLS showed nd (0 of 3 replicates).
Variant KSSQSVLYESRNKNSVA | WASTHEM | QQPHRLPLS showed 590 nM (3 of 3 replicates).